Results from patent US20150004237A1, “CELLULOSE DERIVATIVES FOR INHIBITING CRYSTALLIZATION OF POORLY WATER-SOLUBLE DRUGS” (Virginia Tech Intellectual Properties, Inc., priority 2012, published 2015).

What was measured:
[1] = pH 6.8
[2] = pH 6.8; cited from earlier work

For “Hydroxypropyl methyl cellulose acetate succinate [HPMCAS]”, the “Equilibrium solubility of efavirenz in the presence of polymer” value [1] is given as 8.4 ± 0.03 µg/mL, the “Solubility of Ritonavir in the presence of polymer” value [1] is given as 1.4 ± 0.09 µg/mL and the “Equilibrium solubility of ritonavir in the presence of polymer (Table 7)” value [2] is given as 1.4 ± 0.09 µg/mL.
